Results as given in ChEMBL document CHEMBL1138940, “Design and synthesis of orally efficacious benzimidazoles as melanin-concentrating hormone receptor 1 antagonists” (Bioorg Med Chem Lett, 2006).

Protein sequences, listed by entry. Tags and fused reporters are not part of them.
UniProt Q99705, whole entry: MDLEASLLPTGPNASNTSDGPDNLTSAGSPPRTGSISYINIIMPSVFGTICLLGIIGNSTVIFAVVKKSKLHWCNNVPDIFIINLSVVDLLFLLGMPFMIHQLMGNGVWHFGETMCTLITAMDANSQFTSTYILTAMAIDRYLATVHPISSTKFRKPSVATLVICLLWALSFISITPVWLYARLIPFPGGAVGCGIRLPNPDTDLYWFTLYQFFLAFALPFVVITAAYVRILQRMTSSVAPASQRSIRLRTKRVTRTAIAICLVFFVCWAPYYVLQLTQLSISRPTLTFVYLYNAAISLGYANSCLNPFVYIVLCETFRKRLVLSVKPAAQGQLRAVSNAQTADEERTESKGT
UniProt Q969V1, whole entry: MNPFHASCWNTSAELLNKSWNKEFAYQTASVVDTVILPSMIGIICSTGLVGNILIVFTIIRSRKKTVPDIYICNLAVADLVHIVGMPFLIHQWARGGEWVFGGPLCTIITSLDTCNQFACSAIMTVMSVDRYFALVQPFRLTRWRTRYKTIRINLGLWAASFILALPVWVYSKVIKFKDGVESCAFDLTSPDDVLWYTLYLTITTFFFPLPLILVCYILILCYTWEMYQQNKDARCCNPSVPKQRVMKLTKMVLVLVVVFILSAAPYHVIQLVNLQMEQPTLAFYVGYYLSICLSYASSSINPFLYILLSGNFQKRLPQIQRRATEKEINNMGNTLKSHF

Experiments:
[1] = molecular target: Melanin-concentrating hormone receptor 1 (Homo sapiens, UniProt Q99705); assay: Binding affinity to human MCHR1 assessed as inhibition of MCH-mediated calcium ion influx by FLIPR assay; assay type: functional
In short: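 Functional antagonism at human MCH-R1: cells expressing hMCH-R1 were read by FLIPR for block of MCH-mediated Ca2+ influx, and the value was reported as Kb.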

[2] = molecular target: Melanin-concentrating hormone receptor 2 (Homo sapiens) (UniProt Q969V1); assay: Binding affinity to human MCHR2 assessed as inhibition of MCH-mediated calcium ion influx by FLIPR assay; assay type: functional

Compound: N#Cc1cccc(-c2ccc(N(C(=O)Nc3cc(Cl)cc(Cl)c3)C3CCN(C4CCCC4)CC3)cc2)c1
- Kb [1]: 3.1 nM
- Activity [2]: > 3 µM
